Test results from patent publication US20240277700A1, “COMPOSITIONS AND METHODS FOR TREATING AND PREVENTING INTERSTITIAL CYSTITIS” (Hista RX LLC, priority 2021, published 2024).

Test system: patient with bladder pain and overactive bladder
Details: person; prior medications and procedures

## CCOC(=O)N1CCC(=C2c3ccc(Cl)cc3CCc3cccnc32)CC1 [Loratidine]
  symptomatic relief by prior treatment: had not been achieved
